The text below walks through data of patent US20080021015A1, “Use as medicine of a compound restoring active principles in vivo” (DOSPHARMA, priority 2000, published 2008).

The conditions of series [1]: 37° C., one hour.
Series [2] deals with rat hepatocyte culture. The note with it: over 24 hours.
For series [3] the following is noted: rats, orally, 50 mg/kg, plasmatic metformin.

Regarding “arginine hemisuccinimide-metformin hemisuccinate”, in series [1], the “release of the active principles in intestinal juice” value is listed as “Immediate release of the metformin without modifying the arginine hemisuccinimide part”. Also, the “release of arginine in rat hepatocyte culture” value in series [2] is on record as “Slow release of arginine over 24 hours”. In addition, in series [3], the bioavailable fraction worked out at 75%, the concentration peak worked out at 2900 ng/mL, the half-life was 2.6 h and the “time of concentration peak” value turned out to be 60 min. In addition, the “solubility in organic solvents” value (organic solvents) is recorded as “insoluble in organic solvents”. Further, for the setting “water”, the solubility in water entry was “soluble in water”.

In general, half-life refers to how long it takes for the measured level to halve. Higher therefore signals slow decline.
